Assay results published in PubChem BioAssay AID686964 (The Scripps Research Institute Molecular Screening Center, 2013).
This is a selection; strong and weak results do not stand in their true shares. Activity calls are given as the source filed them. No stated cut-off is given here; in the data, active means inhibition above about 13%; inactive means the rest.

Sequences of proteins named here, by UniProt entry; tags and fusion partners are left off.
UniProt Q9UBB5, whole entry: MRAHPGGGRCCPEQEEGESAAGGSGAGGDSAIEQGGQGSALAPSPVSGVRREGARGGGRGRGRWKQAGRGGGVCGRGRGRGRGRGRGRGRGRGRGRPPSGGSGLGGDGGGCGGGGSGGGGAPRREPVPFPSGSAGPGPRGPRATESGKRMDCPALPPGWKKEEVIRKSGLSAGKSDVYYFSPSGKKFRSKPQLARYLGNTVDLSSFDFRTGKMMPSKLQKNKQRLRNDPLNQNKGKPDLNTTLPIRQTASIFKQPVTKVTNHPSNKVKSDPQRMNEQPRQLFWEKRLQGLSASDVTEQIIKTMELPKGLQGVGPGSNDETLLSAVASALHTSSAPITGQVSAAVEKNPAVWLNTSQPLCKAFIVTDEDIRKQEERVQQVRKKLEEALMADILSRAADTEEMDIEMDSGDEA

The compounds below were run against Methyl-CpG-binding domain protein 2 (Homo sapiens) (UniProt Q9UBB5) (assay: MBD2-DBD methyl-oligonucleotide interaction blockers – biochemical, TR-FRET, DNA-binding domain, human, primary screen (AID 686964)). Settings: MBD2 binding to methylated oligonucleotide, at 4.4 µM, stronger effect = higher value.
In the case of `CCC(=O)N(c1ccccc1)C1(COC)CCN(CCn2nnn(CC)c2=O)CC1`, the inhibition is reported as inactive: -1.11%.
In the case of `CCC(=O)N(c1ccccc1)C1(COC)CCN(CCc2cccs2)CC1`, the inhibition is reported as inactive: -4.03%.
